Patent US6743609B1, “Linoleate isomerase” (Arkion Life Sciences LLC, priority 1997, dated 2004)

System: P. acnes ATCC 6919 linoleate isomerase
Test: Effect of cofactors, metals, chelators and sulfhydryl reagents on isomerase activity of crude soluble enzyme preparation
Assay type: biochemical, Propionibacterium acnes
Conditions: 60 minute assays
Experimental: A number of possible cofactors were tested for their effect on isomerase activity, including NAD, NADH, NADP, NADPH, FAD, FMN, ADP, ATP and glutathione.
Generally, the isomerase was assayed using an endpoint assay after 30 to 60 minutes incubation at room temperature. FIG. 18 (time course assay at different linoleic acid levels) and FIG. 19 (end point assay at different linoleic acid levels) show the effect of increasing substrate concentration on formation of […].

## Nc1ncnc2c1ncn2[C@@H]1O[C@H](COP(=O)(O)OP(=O)(O)OP(=O)(O)O)[C@@H](O)[C@H]1O [ATP]
  effect of possible cofactor on isomerase activity: No significant effect
